Test [1] has as its target cortisone reductase of mouse adipose cell (11βHSD1) (Mus musculus, UniProt P50172). Put plainly: Inhibitory activity assay against cortisone reductase of mouse primary adipocytes. The settings on record: read-out: IC50 against cortisone reductase of mouse adipose cell, differentiated ICR mouse visceral fat primary adipocytes, 100 nM [1,2-3H] cortisone, 37° C. The procedure:
The adipose tissues adhered to the mesenterium and around the testicle of ten ICR male mice (9 to 11 weeks old, Japn SLC Inc.) (hereinafter, referred to as visceral fat tissue) were soaked in about 100 mL of a phospate buffer (0.20 g/L KCl, 0.20 g/L KH2PO4, 8.00 g/L NaCl, 2.16 g/L Na2HPO4.7H2O, 100 unit/ml penicillin (GIBCO), 100 μg/ml streptomycin (GIBCO), 250 ng/ml amphotericin (GIBCO)) and washed at room temperature.
The excised visceral fat tissues was cut finely in about 5×5 mm with scissors in Dulbecco's modified Eagle medium (about 50 ml, containing 4.5 g/L D-glucose and 584 mg/L L-glutamine, GIBCO) to which collagenase (Type II, Sigma), penicillin (GIBCO), streptomycin (GIBCO) and amphotericin (GIBCO) were added in an amount so that the final concentrations thereof are adjusted to 1 mg/ml, 100 unit/ml, 100 μg/ml and 250 ng/ml, respectively. Then, the mixture was shaken at 37° C. for 30 minutes (about 170 rpm), filtered through nylon mesh (80S [the pore size: 250 μm], SANSHIN INDUSTRIAL CO., LTD.), and the filtrate (cell suspension) was collected. […]
The cells in the cell suspension were counted with a counting chamber, and the cell suspension was diluted with the FBS-containing medium so that the concentration of the cell was adjusted to 1.4×10^5 cells/ml. […]

Amino acid sequences for entries named in this document (tags omitted).
UniProt P50172, whole entry: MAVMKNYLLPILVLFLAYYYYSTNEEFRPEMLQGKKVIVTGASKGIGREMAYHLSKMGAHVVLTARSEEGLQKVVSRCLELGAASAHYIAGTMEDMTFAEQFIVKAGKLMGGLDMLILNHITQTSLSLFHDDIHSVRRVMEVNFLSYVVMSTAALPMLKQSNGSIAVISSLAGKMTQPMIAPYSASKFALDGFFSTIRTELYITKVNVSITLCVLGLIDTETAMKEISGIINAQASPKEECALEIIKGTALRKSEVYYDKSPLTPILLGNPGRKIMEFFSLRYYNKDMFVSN
UniProt P28845, whole entry: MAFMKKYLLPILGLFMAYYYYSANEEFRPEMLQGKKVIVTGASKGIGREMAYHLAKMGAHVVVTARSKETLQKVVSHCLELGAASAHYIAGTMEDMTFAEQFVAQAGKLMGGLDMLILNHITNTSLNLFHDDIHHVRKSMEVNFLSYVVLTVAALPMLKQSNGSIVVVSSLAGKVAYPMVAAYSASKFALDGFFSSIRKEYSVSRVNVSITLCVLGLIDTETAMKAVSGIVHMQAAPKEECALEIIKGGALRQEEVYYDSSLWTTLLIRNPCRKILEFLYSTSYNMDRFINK

Test [2] has as its target cortisone reductase of human adipose cell (11βHSD1) (Homo sapiens, UniProt P28845). Briefly: Inhibitory activity assay against cortisone reductase activity of cultured human adipocytes. To be noted: read-out: IC50 against cortisone reductase of human adipose cell, differentiated normal human preadipocytes (HPrAD-vis), 100 nM [1,2-3H] cortisone, 37° C. The method, then:
Normal human preadipocytes (HPrAD-vis, manufactured by Cambrex corporation) were inoculated onto a 48-well cell culture plate, and the differentiation induction was carried out according to Protocol attached to the kit. The medium for the cells on the 9-11 days of the differentiation was changed to D-MEM medium (0.2 ml; manufactured by GIBCO) containing 100 nM [1,2-^3H] cortisone (1 μCi/well, manufactured by Muromachi Yakuhin), 0.5% DMSO, a test compound (for test compound treated group, or DMSO only for the no-test compound treated group). The plate was incubated at 37° C. for 3 hours, and then the whole medium was collected. As a background group, the medium without cell was used. The medium was mixed with ethyl acetate (0.1 ml) in an Eppendorf tube. This mixture was voltexed, and then further centrifuged at 5,000 rpm for one minute at room temperature to separate the ethyl acetate layer (the upper layer). […] After the exposure was completed, the imaging plate was analyzed by Bioimage Analyzer (BAS2500, Fujifilm) and the [^3H] radioactivity on the part corresponding to the position of cortisol developed on the TLC plate. The inhibitory activity of a test compound against cortisone reductase was calculated according to the following equation. […]

SMILES strings stand for the structures. pIC50: −log10 of the molar value.

On to `Cc1cccc(N2CCC(O[C@H]3C[C@H]4CC[C@@H](C3)N4C(=O)N[C@H]3C4CC5CC3C[C@](O)(C5)C4)CC2)n1`, for which, in test [1], the pIC50 (commonly the negative decadic logarithm of the IC50, by convention in mol/L) was over 8.52.
`O=C(N[C@H]1C2CC3CC1C[C@](O)(C3)C2)N1[C@@H]2CC[C@H]1C[C@@H](Oc1cccc(OCCF)c1)C2`: the pIC50 in test [2] was 7.92.

(Values after patent US8933229B2, “8-azabicyclo[3.2.1]octane-8-carboxamide derivative” (Sumitomo Dainippon Pharma Co., Ltd., priority 2009, dated 2015).)
